# Test system: Artemia salina
# Assay: Toxicity against Artemia salina larvae after 24 hrs
# Assay type: organism-based
# Settings: in vivo
# Summary of the method: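 Brine shrimp lethality test. Artemia salina eggs were hatched 48 h at 37 °C in filtered sea salt solution (38 g/L) with constant oxygen to give nauplii. Stock was 10 mg compound in 2 mL DMSO, diluted to 80, 40, 20, 10 and 5 µg/mL in triplicate vials, about 10 nauplii each, with a DMSO control. LC50 is the mean of three values.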
smiles,measurement,value
CCOP1(=O)Nc2nnc(C)c(=O)n2NC1C (stereo unspecified),LC50,32.3 µg/mL

# From ChEMBL document CHEMBL1155284, “Synthesis and antibacterial activity of some new thiadiaza/triazaphospholes, thiadiaza/triaza/tetrazaphosphinines and thiadiaza/tetrazaphosphepines containing 1,2,4-triazinone moiety” (Eur J Med Chem, 2009)
